{
  "source": "paper PMC4629469",
  "about": "(Bioorganic & medicinal chemistry letters, 2015)",
  "origin": "cited, not measured here",
  "tested_on": "μ-opioid receptor",
  "settings": "cited from earlier work",
  "data": [
    {"compound": "CCOC(=O)C1(c2ccccc2)CCN(C)CC1", "note": "[pethidine]", "values": [
      {"measurement": "μ-opioid receptor agonist activity", "value": "weak μ-opioid receptor agonist activity"}
    ]}
  ]
}
